AlphaSeq binding of Ab-14 heavy chain variants to a spike HR2 peptide

Source: Engelhart et al. 2022 (doi:10.1038/s41597-022-01779-4), MIT Lincoln Laboratory and A-Alpha Bio; data file from the FLAb repository.

Target peptide (SARS-CoV-2 spike, HR2 region): PDVDLGDISGINAS

The variants keep the light chain, the linker and the frameworks of Ab-14 (scFv order VH, the linker GGGGSGGGGSGGGGS, VL).
VH: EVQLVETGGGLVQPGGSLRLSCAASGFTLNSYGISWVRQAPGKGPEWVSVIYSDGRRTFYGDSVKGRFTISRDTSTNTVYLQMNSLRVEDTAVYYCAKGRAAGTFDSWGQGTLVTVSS
VL: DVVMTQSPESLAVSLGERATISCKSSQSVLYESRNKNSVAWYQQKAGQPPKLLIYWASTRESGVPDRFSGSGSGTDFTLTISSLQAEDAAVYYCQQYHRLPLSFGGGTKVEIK

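Variants in AAYL49 differ from the parent at up to three CDR positions; double and triple changes were sampled at random. AlphaSeq pools MATa yeast showing the antibodies with MATalpha yeast showing the peptide. Binding brings cells together so that they mate, and sequencing counts the barcode pairs among the diploids. A regression on co-assayed BCL2-family reference pairs converts the normalised counts of each replicate to an apparent Kd. Mating was done three times.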

Variants are written as CDR1, CDR2 and CDR3 of the heavy chain (limits as in the source). Parent: GFTLNSYGIS, VIYSDGRRTFYGDSVK, GRAAGTFDS.
Every variant below is changed at T28 of the VH (sequential numbering).
Each Kd is an estimate from the mating assay, the geometric mean of the replicates in which the pair was seen; lower is stronger.
An entry "nd" has no value in the source: the pair was not observed among the diploids in any replicate. This suggests poor binding but is not conclusive.
Nonspecific signal, from three strains lacking the peptide, appeared in 15% of pairings of library AAYL49, centred on 11 µM (5% of these signals below 680 nM); values are not corrected for it. For each scFv, signals with the empty controls are counted beside the result.

Variant GFQLNSYGIS / VIYSDGRATFYGHSVK / GRAAGTFDS gave 9.4 µM (1 of 3 replicates; controls 1 of 9). With GFKLNSYGAS / VIYSDGRRTFYGDSVK / TRAAGTFDS the result was 12 µM (2 of 3 replicates; controls 3 of 9). With GFSLNSYGIS / VIYSDGRRTWYGDSVK / GWAAGTFDS the result was 13 nM (3 of 3 replicates; controls 4 of 9). For GFWLNSYGIS / VIISDGRRTFYGDSVK / GRAAGTFDS, the assay gave 130 µM (2 of 3 replicates; controls 5 of 9). Variant GFNLNSYGIS / VIYSDGERTFYGDSVK / GRAAGGFDS showed 87 µM (1 of 3 replicates; controls 4 of 9).

For GFGDNSYGAS / VIYSDGRRTFYGDSVK / GRAAGTFDS, the assay gave nd (0 of 3 replicates; controls 0 of 9). Variant GFELNSYGIS / VIYSDGGRTFYGDSVK / GRAAGTFDS showed 17 nM (3 of 3 replicates; controls 2 of 9). With GFVLNSRGIS / VIYSKGRRTFYGDSVK / GRAAGTFDS the result was 29 µM (2 of 3 replicates; controls 1 of 9). With GFALNSYGIS / VIYSDGRRTFYGDSHK / GRAAGSFDS the result was nd (0 of 3 replicates; controls 1 of 9). Variant SFNLNSYGID / VIYSDGRRTFYGDSVK / GRAAGTFDS showed nd (0 of 3 replicates; controls 0 of 9).

Variant GFNLNSYGIS / VIYSDGRRTFYGDDVK / GRAAGTFDS gave 1.7 nM (3 of 3 replicates; controls 4 of 9). Variant YFPLNSKGIS / VIYSDGRRTFYGDSVK / GRAAGTFDS gave nd (0 of 3 replicates; controls 0 of 9). With GFVLNSYGIS / VIYSDKTRTFYGDSVK / GRAAGTFDS the result was nd (0 of 3 replicates; controls 0 of 9). With GFMLNSYGIS / VIYSDGRPTFYGDSIK / GRAAGTFDS the result was 210 µM (1 of 3 replicates; controls 1 of 9). For GFVLNSYGIS / VIYSDGRKTFYGDSVK / GLAAGTFDS, the assay gave 460 nM (2 of 3 replicates; controls 2 of 9).

For GFDLNSYGIS / VPYSDGRRTFYGDSVK / GAAAGTFDS, the assay gave nd (0 of 3 replicates; controls 3 of 9). With GFALNSYGQS / VIYSAGRRTFYGDSVK / GRAAGTFDS the result was nd (0 of 3 replicates; controls 0 of 9). With GFGLNSYGIS / VIYPDGRRTFYGDSVK / GRAAGHFDS the result was 19 nM (3 of 3 replicates; controls 2 of 9). Variant GFELNSYGIS / VMYSDGRRTFYGDSVN / GRAAGTFDS showed 5.5 µM (2 of 3 replicates; controls 4 of 9). Variant GLVLNSYGIS / VIYSDGRRTFYGDSVK / GRAGGTFDS gave 4.8 nM (3 of 3 replicates; controls 1 of 9).

With GFDLNSYGIS / VIYSDGRRAFYGDSVK / GRWAGTFDS the result was 2.0 nM (3 of 3 replicates; controls 1 of 9). Variant GFHLDSYGIS / VIYSDGRRTFYGDSQK / GRAAGTFDS gave 18 µM (1 of 3 replicates; controls 2 of 9). Variant GFALNSYGIS / VIYQDGRRTFYIDSVK / GRAAGTFDS gave 41 nM (3 of 3 replicates; controls 2 of 9). For GFRLNSYGIS / VIYSDGRRTFYGDSVK / QRAAGQFDS, the assay gave nd (0 of 3 replicates; controls 0 of 9). Variant GFLLNSYGIS / IIYSDGRRTFYGDSWK / GRAAGTFDS showed 1.8 µM (2 of 3 replicates; controls 1 of 9).

For GFSLNSYGIS / VIYSDGRKTFYGDSVK / GRYAGTFDS, the assay gave nd (0 of 3 replicates; controls 0 of 9). With GFCLNSYGIS / VIYSDGRRTFYGDSVI / GRAAGTSDS the result was 9.6 µM (1 of 3 replicates; controls 1 of 9). Variant GFCLNSYGDS / VIYSDGRHTFYGDSVK / GRAAGTFDS gave nd (0 of 3 replicates; controls 0 of 9). Variant GFDLNSYGIS / VIYSDGRRTFYGDSVK / VRMAGTFDS showed 1.7 µM (1 of 3 replicates; controls 1 of 9). For GFAFNSYGIS / VIYLDGRRTFYGDSVK / GRAAGTFDS, the assay gave nd (0 of 3 replicates; controls 1 of 9).

Variant GFDMNSYGIS / VIYSDGRRTFYGDSVK / GRAAGTFDP showed 24 µM (2 of 3 replicates; controls 2 of 9). Variant GFLLNSYGIS / VLYSDGRRTFYGDSVK / GRACGTFDS showed 57 µM (2 of 3 replicates; controls 2 of 9).

A selection of 2 entries from above:

CDR-H1,CDR-H2,CDR-H3,Kd,detected,signal with controls
GFWLNSYGIS,VIISDGRRTFYGDSVK,GRAAGTFDS,130 µM,2 of 3,5 of 9
GFALNSYGQS,VIYSAGRRTFYGDSVK,GRAAGTFDS,nd,0 of 3,0 of 9